The target in the assay is T1, Cytochrome P450 2A6 (Homo sapiens, UniProt P11509).
T1 sequence (P11509 whole entry): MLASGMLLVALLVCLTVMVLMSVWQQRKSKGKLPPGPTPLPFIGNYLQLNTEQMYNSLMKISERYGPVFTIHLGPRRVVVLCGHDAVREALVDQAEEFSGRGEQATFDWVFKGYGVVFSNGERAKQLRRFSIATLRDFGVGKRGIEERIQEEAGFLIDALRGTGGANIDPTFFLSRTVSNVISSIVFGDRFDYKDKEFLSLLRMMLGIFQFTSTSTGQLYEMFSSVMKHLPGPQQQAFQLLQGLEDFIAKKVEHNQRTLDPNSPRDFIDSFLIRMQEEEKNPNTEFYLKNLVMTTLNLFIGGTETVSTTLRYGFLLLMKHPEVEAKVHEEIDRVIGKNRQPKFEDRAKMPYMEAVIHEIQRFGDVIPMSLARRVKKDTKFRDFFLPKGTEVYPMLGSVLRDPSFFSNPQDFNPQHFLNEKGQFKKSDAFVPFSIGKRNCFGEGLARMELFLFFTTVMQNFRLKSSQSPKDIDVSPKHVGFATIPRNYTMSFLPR
Nature of the assay: Inhibition of human CYP2A6.

For one compound, Ki results are on record in ChEMBL document CHEMBL1137358, “Synthetic inhibitors of cytochrome P-450 2A6: inhibitory activity, difference spectra, mechanism of inhibition, and protein cocrystallization” (J Med Chem, 2006).

Molecules are shown by their SMILES. pKi: −log10 of the molar value.

The term pKi denotes the negative decadic logarithm of the Ki, by convention in mol/L. Low readings indicate a large Ki, high ones a small Ki.

Turning to `CN(C)Cc1ccc(-c2cccnc2)o1`, the pKi was 4.85.
